Among the data in article PMC5527967 (The Prostate, 2017) are IC50 values, retold here.

The chains behind the UniProt entries cited, without tags or fusion partners. Where a name states a change or a piece, a line headed by the entry shows the natural chain unless it says otherwise.
UniProt P42338: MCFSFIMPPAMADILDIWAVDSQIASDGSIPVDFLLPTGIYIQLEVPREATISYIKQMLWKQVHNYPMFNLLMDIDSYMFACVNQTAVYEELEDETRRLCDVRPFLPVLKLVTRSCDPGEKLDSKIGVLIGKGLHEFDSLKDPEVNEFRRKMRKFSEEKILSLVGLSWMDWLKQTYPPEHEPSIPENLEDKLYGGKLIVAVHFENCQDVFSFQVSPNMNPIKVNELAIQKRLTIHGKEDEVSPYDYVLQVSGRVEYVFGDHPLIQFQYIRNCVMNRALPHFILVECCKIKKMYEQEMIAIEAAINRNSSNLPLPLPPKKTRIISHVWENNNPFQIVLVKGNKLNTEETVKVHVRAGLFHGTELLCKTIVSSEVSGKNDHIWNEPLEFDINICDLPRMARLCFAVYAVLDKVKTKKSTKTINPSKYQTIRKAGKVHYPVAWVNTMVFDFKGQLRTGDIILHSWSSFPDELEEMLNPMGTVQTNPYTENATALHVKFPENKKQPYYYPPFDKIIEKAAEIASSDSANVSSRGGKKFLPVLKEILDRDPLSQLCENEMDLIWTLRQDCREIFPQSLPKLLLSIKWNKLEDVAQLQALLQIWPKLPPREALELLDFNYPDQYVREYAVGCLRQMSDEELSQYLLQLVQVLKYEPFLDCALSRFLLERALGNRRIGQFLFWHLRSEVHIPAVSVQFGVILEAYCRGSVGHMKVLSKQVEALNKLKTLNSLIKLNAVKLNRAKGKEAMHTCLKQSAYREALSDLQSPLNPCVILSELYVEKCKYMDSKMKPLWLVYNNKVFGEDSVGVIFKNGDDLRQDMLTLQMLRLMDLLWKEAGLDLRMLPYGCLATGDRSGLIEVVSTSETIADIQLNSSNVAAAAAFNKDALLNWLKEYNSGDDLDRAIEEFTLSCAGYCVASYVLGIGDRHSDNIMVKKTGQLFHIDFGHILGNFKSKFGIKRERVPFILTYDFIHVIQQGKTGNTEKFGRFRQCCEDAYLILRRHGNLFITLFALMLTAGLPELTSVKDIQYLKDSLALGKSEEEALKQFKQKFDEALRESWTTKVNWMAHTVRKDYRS

Structures are written as SMILES.

The target in the assay is human p110β/p85α (Homo sapiens, UniProt P42338). Briefly: Kinase-Glo Plus luminescent kinase assay. Type of assay: biochemical. Particulars: read-out: IC50 p110β; 2 μM ATP, 37°C, 2 h.

For the molecule `Cc1cc(C(C)Nc2ccccc2)c2nc(N3CCOCC3)cc(=O)n2c1` (stereo not shown) [TGX221], the IC50 came to 4.81 nM.

For orientation: IC50 means the midpoint of a concentration-inhibition curve.
